The chains behind the UniProt entries cited, without tags or fusion partners. Where a name states a change or a piece, a line headed by the entry shows the natural chain unless it says otherwise.
UniProt Q05513: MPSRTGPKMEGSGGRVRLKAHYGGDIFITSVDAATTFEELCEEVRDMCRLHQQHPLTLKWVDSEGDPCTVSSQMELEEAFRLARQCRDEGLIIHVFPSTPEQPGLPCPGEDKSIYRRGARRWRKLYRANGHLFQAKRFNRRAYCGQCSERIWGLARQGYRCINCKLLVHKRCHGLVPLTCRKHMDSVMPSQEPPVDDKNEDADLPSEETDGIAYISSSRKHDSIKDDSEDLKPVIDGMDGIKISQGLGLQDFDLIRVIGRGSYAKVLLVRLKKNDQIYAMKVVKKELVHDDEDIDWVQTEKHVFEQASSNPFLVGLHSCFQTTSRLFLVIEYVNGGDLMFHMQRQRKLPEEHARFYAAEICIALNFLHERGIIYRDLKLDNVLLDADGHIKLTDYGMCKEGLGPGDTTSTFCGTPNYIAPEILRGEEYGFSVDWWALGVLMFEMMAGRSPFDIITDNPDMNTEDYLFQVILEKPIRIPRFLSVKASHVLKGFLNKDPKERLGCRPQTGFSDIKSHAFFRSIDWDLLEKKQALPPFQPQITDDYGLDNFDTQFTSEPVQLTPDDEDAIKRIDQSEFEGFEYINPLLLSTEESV
UniProt Q14012: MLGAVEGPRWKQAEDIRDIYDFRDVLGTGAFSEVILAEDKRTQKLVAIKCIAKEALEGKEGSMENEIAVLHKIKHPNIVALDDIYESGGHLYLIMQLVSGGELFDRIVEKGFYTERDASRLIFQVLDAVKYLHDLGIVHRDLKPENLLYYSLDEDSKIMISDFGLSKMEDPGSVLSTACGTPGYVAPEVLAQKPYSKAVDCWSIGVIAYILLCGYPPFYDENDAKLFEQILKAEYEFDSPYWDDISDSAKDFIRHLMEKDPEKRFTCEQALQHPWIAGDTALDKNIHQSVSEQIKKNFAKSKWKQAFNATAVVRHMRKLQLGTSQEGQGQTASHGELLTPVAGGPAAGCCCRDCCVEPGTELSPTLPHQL
UniProt Q9NQU5: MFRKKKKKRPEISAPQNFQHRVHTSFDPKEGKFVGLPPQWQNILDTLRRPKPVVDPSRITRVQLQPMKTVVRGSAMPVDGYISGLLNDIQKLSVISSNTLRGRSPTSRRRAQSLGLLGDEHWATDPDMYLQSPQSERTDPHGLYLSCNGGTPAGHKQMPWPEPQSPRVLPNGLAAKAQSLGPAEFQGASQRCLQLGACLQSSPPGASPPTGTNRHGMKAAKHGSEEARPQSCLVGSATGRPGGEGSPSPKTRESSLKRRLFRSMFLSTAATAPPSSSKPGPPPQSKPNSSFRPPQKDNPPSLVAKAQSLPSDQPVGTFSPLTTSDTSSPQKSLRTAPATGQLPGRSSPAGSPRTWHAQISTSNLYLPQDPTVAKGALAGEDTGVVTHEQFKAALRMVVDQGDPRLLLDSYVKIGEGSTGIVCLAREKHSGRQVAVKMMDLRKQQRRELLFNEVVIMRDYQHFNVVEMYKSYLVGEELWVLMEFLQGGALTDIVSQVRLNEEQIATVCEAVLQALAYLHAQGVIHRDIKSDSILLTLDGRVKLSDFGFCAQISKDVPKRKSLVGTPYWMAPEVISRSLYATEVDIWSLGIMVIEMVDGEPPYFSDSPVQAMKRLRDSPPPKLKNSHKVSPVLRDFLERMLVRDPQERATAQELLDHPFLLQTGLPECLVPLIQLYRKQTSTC
UniProt Q05397, whole entry, looked up: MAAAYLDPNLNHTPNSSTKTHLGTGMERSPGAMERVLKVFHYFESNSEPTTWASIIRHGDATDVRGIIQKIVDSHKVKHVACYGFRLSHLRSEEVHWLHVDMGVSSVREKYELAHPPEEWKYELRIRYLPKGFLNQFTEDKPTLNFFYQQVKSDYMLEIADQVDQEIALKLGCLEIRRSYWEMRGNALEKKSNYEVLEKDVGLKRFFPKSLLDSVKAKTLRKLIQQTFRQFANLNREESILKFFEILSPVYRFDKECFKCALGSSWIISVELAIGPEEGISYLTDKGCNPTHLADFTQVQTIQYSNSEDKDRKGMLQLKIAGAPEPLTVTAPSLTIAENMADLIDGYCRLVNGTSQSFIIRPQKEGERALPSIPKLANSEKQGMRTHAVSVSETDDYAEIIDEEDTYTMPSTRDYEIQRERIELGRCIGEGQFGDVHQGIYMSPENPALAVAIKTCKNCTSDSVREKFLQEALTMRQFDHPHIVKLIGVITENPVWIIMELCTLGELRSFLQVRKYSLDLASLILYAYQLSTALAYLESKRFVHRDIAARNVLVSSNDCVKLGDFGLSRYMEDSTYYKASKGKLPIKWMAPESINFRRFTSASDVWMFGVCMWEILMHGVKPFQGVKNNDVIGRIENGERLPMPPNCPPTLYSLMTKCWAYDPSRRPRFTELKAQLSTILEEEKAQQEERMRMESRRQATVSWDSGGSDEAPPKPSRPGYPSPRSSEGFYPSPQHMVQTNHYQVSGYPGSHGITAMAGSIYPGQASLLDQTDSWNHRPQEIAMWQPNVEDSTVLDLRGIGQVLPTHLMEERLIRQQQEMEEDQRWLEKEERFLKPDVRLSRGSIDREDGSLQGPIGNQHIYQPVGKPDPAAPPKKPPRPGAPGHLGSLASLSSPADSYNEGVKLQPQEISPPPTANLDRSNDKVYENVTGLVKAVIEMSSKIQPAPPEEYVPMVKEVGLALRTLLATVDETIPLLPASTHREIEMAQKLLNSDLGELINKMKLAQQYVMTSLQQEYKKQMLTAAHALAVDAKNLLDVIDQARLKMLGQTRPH
UniProt P22607, whole entry, looked up: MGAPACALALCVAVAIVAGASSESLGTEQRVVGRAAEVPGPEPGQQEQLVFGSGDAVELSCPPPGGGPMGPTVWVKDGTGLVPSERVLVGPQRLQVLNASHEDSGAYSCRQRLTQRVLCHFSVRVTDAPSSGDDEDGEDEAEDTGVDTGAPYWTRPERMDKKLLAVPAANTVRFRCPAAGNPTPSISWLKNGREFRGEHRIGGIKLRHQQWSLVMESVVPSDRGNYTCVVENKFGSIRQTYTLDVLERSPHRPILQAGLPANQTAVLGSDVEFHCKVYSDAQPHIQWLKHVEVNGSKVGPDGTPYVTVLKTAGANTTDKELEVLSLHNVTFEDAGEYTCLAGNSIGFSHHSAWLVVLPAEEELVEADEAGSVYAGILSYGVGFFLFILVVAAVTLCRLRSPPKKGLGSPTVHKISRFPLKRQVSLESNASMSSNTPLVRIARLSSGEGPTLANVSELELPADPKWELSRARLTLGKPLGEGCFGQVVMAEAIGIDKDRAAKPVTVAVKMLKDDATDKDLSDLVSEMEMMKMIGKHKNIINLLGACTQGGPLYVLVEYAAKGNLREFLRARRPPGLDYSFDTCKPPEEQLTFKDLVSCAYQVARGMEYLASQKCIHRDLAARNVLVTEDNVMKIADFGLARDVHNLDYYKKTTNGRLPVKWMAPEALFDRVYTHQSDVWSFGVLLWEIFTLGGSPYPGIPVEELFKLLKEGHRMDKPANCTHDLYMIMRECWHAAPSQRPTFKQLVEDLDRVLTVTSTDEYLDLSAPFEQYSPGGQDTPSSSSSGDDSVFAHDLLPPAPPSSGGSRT
UniProt Q8N5S9: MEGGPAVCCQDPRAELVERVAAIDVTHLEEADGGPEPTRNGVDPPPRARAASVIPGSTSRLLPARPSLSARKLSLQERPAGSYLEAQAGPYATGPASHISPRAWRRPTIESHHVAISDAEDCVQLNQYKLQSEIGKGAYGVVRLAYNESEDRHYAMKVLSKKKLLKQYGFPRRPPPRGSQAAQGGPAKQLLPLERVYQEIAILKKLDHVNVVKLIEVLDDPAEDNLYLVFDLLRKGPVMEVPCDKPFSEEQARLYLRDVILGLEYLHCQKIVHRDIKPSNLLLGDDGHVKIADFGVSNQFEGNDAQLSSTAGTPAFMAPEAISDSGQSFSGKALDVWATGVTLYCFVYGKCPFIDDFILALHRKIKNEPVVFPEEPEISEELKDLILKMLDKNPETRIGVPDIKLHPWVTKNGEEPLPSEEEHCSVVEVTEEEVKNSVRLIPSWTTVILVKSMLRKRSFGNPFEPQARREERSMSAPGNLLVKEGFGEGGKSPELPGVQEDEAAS
UniProt P29323: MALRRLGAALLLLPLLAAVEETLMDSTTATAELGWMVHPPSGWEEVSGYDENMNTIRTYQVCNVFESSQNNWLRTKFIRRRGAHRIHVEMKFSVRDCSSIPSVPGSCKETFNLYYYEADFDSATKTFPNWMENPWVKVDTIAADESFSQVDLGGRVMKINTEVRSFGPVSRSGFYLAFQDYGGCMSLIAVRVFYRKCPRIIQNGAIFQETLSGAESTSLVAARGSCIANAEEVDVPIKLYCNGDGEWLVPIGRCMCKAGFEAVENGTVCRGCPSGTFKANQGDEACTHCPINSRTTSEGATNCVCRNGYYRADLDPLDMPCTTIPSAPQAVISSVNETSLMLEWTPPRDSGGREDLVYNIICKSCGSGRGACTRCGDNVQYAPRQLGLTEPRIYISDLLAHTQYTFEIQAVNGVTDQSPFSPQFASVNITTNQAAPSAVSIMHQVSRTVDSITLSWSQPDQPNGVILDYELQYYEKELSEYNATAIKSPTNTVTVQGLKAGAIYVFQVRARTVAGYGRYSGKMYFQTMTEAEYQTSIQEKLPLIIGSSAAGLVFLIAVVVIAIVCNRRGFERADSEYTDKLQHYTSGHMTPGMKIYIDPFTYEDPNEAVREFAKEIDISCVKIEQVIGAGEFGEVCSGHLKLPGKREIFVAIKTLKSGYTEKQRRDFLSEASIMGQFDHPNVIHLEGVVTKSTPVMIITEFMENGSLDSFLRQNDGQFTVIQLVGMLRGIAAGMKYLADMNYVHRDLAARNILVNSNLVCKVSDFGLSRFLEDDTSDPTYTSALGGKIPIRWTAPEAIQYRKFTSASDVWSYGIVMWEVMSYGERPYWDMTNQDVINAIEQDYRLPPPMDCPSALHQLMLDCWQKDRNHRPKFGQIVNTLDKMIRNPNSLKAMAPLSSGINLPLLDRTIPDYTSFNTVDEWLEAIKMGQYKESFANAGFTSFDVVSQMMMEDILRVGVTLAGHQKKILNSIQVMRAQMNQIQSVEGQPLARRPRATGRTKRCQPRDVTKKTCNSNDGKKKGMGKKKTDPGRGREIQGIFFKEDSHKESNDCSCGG
UniProt P06239: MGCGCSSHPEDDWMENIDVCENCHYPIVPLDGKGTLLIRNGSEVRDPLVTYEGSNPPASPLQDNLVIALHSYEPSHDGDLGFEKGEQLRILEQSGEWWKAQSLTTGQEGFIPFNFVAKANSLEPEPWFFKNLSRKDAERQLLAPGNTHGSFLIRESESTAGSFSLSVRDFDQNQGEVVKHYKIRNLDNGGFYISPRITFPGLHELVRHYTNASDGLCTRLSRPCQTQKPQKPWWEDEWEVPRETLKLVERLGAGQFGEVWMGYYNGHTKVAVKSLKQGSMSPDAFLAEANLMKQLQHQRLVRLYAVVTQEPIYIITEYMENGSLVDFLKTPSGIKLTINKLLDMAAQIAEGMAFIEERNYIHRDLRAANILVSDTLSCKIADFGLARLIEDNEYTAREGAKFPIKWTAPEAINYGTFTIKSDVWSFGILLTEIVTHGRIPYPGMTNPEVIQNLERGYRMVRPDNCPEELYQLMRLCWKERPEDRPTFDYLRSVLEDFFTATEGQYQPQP
UniProt P29317, whole entry, looked up: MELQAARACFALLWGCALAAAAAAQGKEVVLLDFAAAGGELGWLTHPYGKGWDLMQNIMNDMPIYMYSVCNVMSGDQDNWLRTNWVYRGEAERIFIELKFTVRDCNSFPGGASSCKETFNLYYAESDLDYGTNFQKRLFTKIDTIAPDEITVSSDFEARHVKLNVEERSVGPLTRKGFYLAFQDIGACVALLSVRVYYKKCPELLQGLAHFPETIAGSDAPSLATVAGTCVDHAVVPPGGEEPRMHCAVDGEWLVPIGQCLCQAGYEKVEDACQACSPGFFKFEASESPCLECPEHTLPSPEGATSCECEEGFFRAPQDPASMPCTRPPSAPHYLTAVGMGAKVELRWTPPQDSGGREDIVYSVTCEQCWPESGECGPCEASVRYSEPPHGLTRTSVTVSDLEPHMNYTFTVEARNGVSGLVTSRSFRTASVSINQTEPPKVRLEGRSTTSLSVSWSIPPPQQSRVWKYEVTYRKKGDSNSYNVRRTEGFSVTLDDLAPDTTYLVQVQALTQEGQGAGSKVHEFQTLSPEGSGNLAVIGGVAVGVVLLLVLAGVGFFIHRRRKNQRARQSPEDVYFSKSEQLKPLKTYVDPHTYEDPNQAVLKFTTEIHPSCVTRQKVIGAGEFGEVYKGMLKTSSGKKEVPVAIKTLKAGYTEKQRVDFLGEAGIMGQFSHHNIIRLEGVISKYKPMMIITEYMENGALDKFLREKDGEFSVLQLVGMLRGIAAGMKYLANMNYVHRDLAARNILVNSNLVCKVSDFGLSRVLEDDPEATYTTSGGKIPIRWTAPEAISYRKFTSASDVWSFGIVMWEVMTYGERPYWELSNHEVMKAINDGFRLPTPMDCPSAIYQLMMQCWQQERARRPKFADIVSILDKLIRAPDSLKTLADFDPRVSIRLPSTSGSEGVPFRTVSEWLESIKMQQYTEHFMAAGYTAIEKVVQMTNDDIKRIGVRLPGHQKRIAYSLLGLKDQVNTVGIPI

According to the kinase profiling compilation of Christmann-Franck et al. (2016):

Assays:
Assay in all cases: radiometric filter-binding kinase assay, Kinase HotSpot
Conditions in all cases: compound 0.5 µM; ATP 10 µM
CHEK1 (human) = CHEK1 (human) (UniProt O14757)
MAPK8 (human) = MAPK8 (human) (UniProt P45983)
STK39 (human) = STK39 (human) (UniProt Q9UEW8)
PRKCZ (human) = PRKCZ (human) (UniProt Q05513)
MERTK (human) = MERTK (human) (UniProt Q12866)
MARK3 (human) = MARK3 (human) (UniProt P27448)
DAPK3 (human) = DAPK3 (human) (UniProt O43293)
CAMK1 (human) = CAMK1 (human) (UniProt Q14012)
PAK6 (human) = PAK6 (human) (UniProt Q9NQU5)
PLK1 (human) = PLK1 (human) (UniProt P53350)
PTK2 (human) = PTK2 (human) (UniProt Q05397)
STK10 (human) = STK10 (human) (UniProt O94804)
FGFR3 (human) = FGFR3 (human) (UniProt P22607)
ABL2 (human) = ABL2 (human) (UniProt P42684)
WEE1 (human) = WEE1 (human) (UniProt P30291)
CAMK2D (human) = CAMK2D (human) (UniProt Q13557)
CAMKK1 (human) = CAMKK1 (human) (UniProt Q8N5S9)
CSF1R (human) = CSF1R (human) (UniProt P07333)
IGF1R (human) = IGF1R (human) (UniProt P08069)
HIPK3 (human) = HIPK3 (human) (UniProt Q9H422)
MUSK (human) = MUSK (human) (UniProt O15146)
EPHB2 (human) = EPHB2 (human) (UniProt P29323)
EPHB3 (human) = EPHB3 (human) (UniProt P54753)
MKNK2 (human) = MKNK2 (human) (UniProt Q9HBH9)
PAK1 (human) = PAK1 (human) (UniProt Q13153)
ULK1 (human) = ULK1 (human) (UniProt O75385)
AXL (human) = AXL (human) (UniProt P30530)
MAPKAPK5 (human) = MAPKAPK5 (human) (UniProt Q8IW41)
MLTK (human) = MLTK (human) (UniProt Q9NYL2)
AURKA (human) = AURKA (human) (UniProt O14965)
FES (human) = FES (human) (UniProt P07332)
PRKCE (human) = PRKCE (human) (UniProt Q02156)
PIM3 (human) = PIM3 (human) (UniProt Q86V86)
LCK (human) = LCK (human) (UniProt P06239)
EPHA4 (human) = EPHA4 (human) (UniProt P54764)
PTK2B (human) = PTK2B (human) (UniProt Q14289)
CHEK2 (human) = CHEK2 (human) (UniProt O96017)
FGFR1 (human) = FGFR1 (human) (UniProt P11362)
PRKCD (human) = PRKCD (human) (UniProt Q05655)
EPHA2 (human) = EPHA2 (human) (UniProt P29317)
GSK3B (human) = GSK3B (human) (UniProt P49841)
DAPK1 (human) = DAPK1 (human) (UniProt P53355)

O=C1Nc2ccc3ncsc3c2/C1=C/c1c[nH]cn1
residual activity (CHEK1 (human)): 27.1% | residual activity (MAPK8 (human)): 86.6% | residual activity (STK39 (human)): 93.7% | residual activity (PRKCZ (human)): 83.2% | residual activity (MERTK (human)): 75.1% | residual activity (MARK3 (human)): 21.3% | residual activity (DAPK3 (human)): 89.1% | residual activity (CAMK1 (human)): 81.9% | residual activity (PAK6 (human)): 92.8% | residual activity (PLK1 (human)): 89% | residual activity (PTK2 (human)): 71.4% | residual activity (STK10 (human)): 38% | residual activity (FGFR3 (human)): 34.8% | residual activity (ABL2 (human)): 69.8% | residual activity (WEE1 (human)): 75.4% | residual activity (CAMK2D (human)): 53.1% | residual activity (CAMKK1 (human)): 58.1% | residual activity (CSF1R (human)): 58.5% | residual activity (IGF1R (human)): 97.5% | residual activity (HIPK3 (human)): 78.7% | residual activity (MUSK (human)): 21.6% | residual activity (EPHB2 (human)): 94.2% | residual activity (EPHB3 (human)): 86% | residual activity (MKNK2 (human)): 17.6% | residual activity (PAK1 (human)): 81.1% | residual activity (ULK1 (human)): 21% | residual activity (AXL (human)): 101% | residual activity (MAPKAPK5 (human)): 74.4% | residual activity (MLTK (human)): 52.8% | residual activity (AURKA (human)): 20% | residual activity (FES (human)): 73.5% | residual activity (PRKCE (human)): 19.4% | residual activity (PIM3 (human)): 34.9% | residual activity (LCK (human)): 84.8% | residual activity (EPHA4 (human)): 85.6% | residual activity (PTK2B (human)): 88% | residual activity (CHEK2 (human)): 49.8% | residual activity (FGFR1 (human)): 41.3% | residual activity (PRKCD (human)): 29.1% | residual activity (EPHA2 (human)): 78.8% | residual activity (GSK3B (human)): 6.34% | residual activity (DAPK1 (human)): 94.4%
